Assay results taken from ChEMBL document CHEMBL3886685, “Nitrogen-containing bicyclic aromatic heterocyclic compound” (2016).

By UniProt entry, the sequences of proteins in these tests, tags left out.
UniProt P25774, whole entry: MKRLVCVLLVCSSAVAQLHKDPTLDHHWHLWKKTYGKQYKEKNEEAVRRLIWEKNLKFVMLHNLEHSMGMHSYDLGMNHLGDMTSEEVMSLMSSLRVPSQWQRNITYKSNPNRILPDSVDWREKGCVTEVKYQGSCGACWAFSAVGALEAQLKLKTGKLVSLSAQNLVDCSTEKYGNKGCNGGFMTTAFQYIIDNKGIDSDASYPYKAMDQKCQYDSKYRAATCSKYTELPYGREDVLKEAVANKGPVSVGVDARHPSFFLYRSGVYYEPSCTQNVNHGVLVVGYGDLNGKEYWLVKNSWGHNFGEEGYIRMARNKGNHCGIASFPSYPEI

Target: Cathepsin S (Homo sapiens, UniProt P25774)
Assay: Inhibition Assay: 5 μL of a human cathepsin S enzyme (R&D1183-CY-010) was added to a 96-well plate so as to be 20 ng/well. Next, 10-fold dilution of the test compound (a 10 mM DMSO solution) was serially performed with a buffer solution for assay (a solution of 50 mM sodium methoxide, 250 mM sodium chloride and 5 mM dithiothreitol (DTT), adjusted to pH=4.5 with 1 N hydrochloric acid) six times such that the final concentration becomes 0.1 nM to 10 μM then, 20 μL of each of the solutions was added to the wells (the final DMSO concentration was 0.1%), and 25 μL of synthetic substrate VVR-AMC (3211-V manufactured by PEPTIDE […], INC.) was added thereto such that the final concentration becomes 40 μM, thereby starting a enzyme reaction. A fluorescence intensity (an excitation wavelength: 380 nm and a fluorescent wavelength: 460 nm) was measured at 37° C. for 10 minutes immediately after the start of the reaction using a fluorescence spectrophotometer (SPECTRA MAX GEMINI, manu

Compound: CCOc1ccc(-c2nc(C#N)nc3c2ncn3C)cc1C(F)(F)F
- IC50: 3.8 nM
